Data: publication PMC4574934, “Gliadin Induces Neutrophil Migration via Engagement of the Formyl Peptide Receptor, FPR1” (PLoS ONE, 2015)

Legend:
[1] = target: T1, human FPR1 (FPR1-transfected HEK293T cells) (Homo sapiens, UniProt P21462); test: FPR1 competitive binding assay by flow cytometry; conditions: FITC-labeled fMet-Leu-Phe at 100 nM; unlabeled gliadin peptide 1 nM to 500 μM
T1 construct: Origene cDNA ORF Clone, OriGene Technologies, Rockville, MD; host or cells: HEK293T
T1 sequence (P21462 1-350): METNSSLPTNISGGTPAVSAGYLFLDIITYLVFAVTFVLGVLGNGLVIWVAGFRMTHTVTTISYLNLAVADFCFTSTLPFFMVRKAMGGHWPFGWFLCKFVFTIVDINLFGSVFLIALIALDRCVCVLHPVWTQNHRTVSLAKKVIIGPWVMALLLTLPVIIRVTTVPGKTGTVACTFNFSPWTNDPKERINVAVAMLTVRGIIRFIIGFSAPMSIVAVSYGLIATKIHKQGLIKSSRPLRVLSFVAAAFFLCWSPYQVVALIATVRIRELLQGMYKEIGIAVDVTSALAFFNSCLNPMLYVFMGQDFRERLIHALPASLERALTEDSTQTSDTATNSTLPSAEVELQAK
Method: (§1) HEK293T cells were transfected with human FPR1 according to the manufacturer’s protocol (Origene cDNA ORF Clone, OriGene Technologies, Rockville, MD). […] Binding kinetics were evaluated by flow cytometric analysis. Specificity of binding of the synthetic gliadin peptide to FPR1 was assessed with the use of FPR1-transfected HEK293T cells. […] Binding was determined by flow cytometry and expressed as mean fluorescence intensity (MFI). The specific binding was calculated as MFIFPR1—MFImock.

[2] = target: T1, human FPR1 (FPR1-transfected HEK293T cells); test: FPR1 kinetic (saturation) binding by flow cytometry; conditions: FITC-labeled ligand; binding expressed as mean fluorescence intensity (MFI); 3-5 independent experiments
Method: as §1

human neutrophils = test: EZ-TAXIScan chemotaxis assay, human neutrophils; assay type: cell-based; set-up: key to Chemotactic response: moderate (++) response; stronger chemotactic response (+++)
Method: Heparinized venous blood was centrifuged over a Ficoll-Paque PLUS gradient (d = 1.077 g/ml, GE Healthcare, Boston, MA). The sedimented granulocyte/erythrocyte fraction was collected, and erythrocytes were lysed with cold lysis buffer (155 mM NH4Cl, 10 mM KHCO3, 0.1 mM EDTA). Cells were resuspended in HBSS without Ca^2+/Mg^2+ (Thermo Scientific, Tewksbury, MA), and viability and purity were assessed as described above. Viability of neutrophils was >95%, purity was 98–99%.
Neutrophils were counted and applied in the EZ-TAXIScan chemotaxis assay. […] The EZ-TAXIScan chamber (Effector Cell Institute, Tokyo) was assembled as described by the manufacturer. Cell migration was recorded every 15 seconds for 30 minutes at 37°C in a humidified environmental chamber. Coverslips and chips used in the chamber were coated with 1% BSA at room temperature for 1 hour. All glass coverslips were ultrasonicated and washed before use. Cell migration analysis was conducted with MATLAB software. Cell tracks were subsequently used to compute the chemotaxis index (CI) and speed for each tracked cell at each time step, as well as the average CI and average speed for each experiment.

[3] = Table 2, peptide 20 ng/mL, 1-3 experiments
[4] = Table 3, in the presence of cyclosporine H (FPR1 inhibitor), 2-3 experiments
[5] = Table 3, no cyclosporine H, 2-3 experiments

## CC[C@H](C)[C@H](NC(=O)[C@@H](NC(=O)[C@H](CS)NC(=O)[C@H](Cc1ccc(O)cc1)NC(=O)[C@@H]1CCCN1C(=O)[C@@H]1CCCN1C(=O)[C@@H](NC(=O)[C@H](Cc1ccc(O)cc1)NC(=O)[C@@H](NC(=O)[C@H](CC(N)=O)NC(=O)[C@H](CS)NC(=O)[C@H](CCSC)NC(=O)[C@H](C)NC(=O)[C@@H]1CCCN1C(=O)[C@H](CC(C)C)NC(=O)[C@@H](N)[C@@H](C)O)C(C)C)[C@@H](C)CC)[C@@H](C)O)C(=O)N[C@H](C(=O)N1CCC[C@H]1C(=O)N[C@@H](Cc1ccccc1)C(=O)NCC(=O)O)C(C)C
[1]
  displacement of fMet-Leu-Phe from FPR1-transfected HEK293T cells: could not compete away; also recorded: not capable of displacement
[2]
  Bmax: 922.4
Human neutrophils; [3]
  Chemotactic response: +++
  Chemotaxis Index (CI): 0.42 ± 0.08
  Speed: 6.94 ± 0.16 μm/minute
Human neutrophils; [4]
  Chemotaxis Index (CI), Cyclosporine H: 0.03 ± 0.01
  Speed, Cyclosporine H: 0.34 ± 0.04 μm/minute
Human neutrophils; [5]
  Chemotaxis Index (CI), Control: 0.33 ± 0.04
  Speed, Control: 6.33 ± 1.10 μm/minute

Entries after “also recorded” stand apart in the source; their conditions may differ.
